The results in this text go back to PubChem BioAssay AID504357 (The Scripps Research Institute Molecular Screening Center, 2011).

Protein sequences, listed by entry. Tags and fused reporters are not part of them.
UniProt P35372, whole entry, looked up: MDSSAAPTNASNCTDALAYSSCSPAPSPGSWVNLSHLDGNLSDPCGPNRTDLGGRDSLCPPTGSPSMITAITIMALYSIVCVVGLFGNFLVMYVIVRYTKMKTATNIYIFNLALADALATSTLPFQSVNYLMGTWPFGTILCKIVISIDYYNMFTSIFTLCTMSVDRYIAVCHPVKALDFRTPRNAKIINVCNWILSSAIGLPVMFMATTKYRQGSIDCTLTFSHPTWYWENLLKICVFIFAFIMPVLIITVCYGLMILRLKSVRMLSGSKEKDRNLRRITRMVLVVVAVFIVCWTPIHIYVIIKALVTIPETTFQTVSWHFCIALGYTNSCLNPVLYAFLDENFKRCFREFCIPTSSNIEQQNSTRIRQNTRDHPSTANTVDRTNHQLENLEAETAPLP
UniProt P41143, whole entry, looked up: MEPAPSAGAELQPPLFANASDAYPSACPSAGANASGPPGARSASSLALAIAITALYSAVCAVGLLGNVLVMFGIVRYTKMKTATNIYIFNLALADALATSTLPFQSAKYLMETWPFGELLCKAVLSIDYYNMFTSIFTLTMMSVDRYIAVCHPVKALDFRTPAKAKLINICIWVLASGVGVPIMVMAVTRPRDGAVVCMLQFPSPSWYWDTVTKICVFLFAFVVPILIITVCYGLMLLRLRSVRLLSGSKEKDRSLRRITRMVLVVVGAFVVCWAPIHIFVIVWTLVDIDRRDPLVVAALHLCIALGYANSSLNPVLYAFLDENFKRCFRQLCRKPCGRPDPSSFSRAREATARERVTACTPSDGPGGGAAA

What is called inhibition is the drop in the measured response relative to a control, in per cent.

Each structure is given as a SMILES string. The entries are a selection whose mix differs from that of the whole data set. Calls of active or inactive are those of the source. No stated cut-off is given here; in the data, active means inhibition above about 22% (passing the limit was not always enough); inactive means the rest.

In this experiment the target is Mu-type opioid receptor (Homo sapiens) + Delta-type opioid receptor (Homo sapiens) (UniProt P35372+P41143). The experiment in a line: OPRM1-OPRD1 heterodimer inverse agonism – cell-based, luminescence, primary screen (AID 504357).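 Further: 0% = cells with DMSO and 100% = wells without cells with DMSO.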 Conditions: cell-based MOR-DOR heterodimer luminescence, at 9.3 µM, hits give high values.
For the molecule `COc1ccc(/C=N/NC(=O)Cn2cnc3c2c(=O)n(C)c(=O)n3C)cc1`, the inhibition is inactive: 17.2%.
The figure for `COC(=O)C1=C(Cn2cnc3ccccc32)NC(=O)NC1c1cc(C)ccc1C` (centres undefined) is inactive: 1.94%; for `c1ccc(CN2CCC(Nc3nc(-c4cccnc4)nc4ccccc34)CC2)cc1` it is inactive: 7.45%; for `CCc1cccc(CC)c1N(COC)C(=O)Cn1c(CO)nc2ccccc21` it is inactive: 20.7%.
The figure for `CCOC(=O)CC[C@H](NC(=O)Cn1cnc2c(SC)nc(N)nc21)C(=O)OCC` is inactive: 15.2%; for `CSc1nc2ccccc2n1CC(=O)Nc1ccc(C)c(C)c1` it is inactive: 3.6%; for `C[C@H](NC(=O)N1CCn2c1nc1ccccc12)C(=O)N1CCCCC1` it is inactive: 14.4%.
The figure for `COc1ccc(Cl)cc1NC(=O)CN(C)C(=O)Cn1cnc2c1c(=O)n(C)c(=O)n2C` is inactive: 1.72%; for `O=C(Cn1c(CO)nc2ccccc21)Nc1ccccc1Cl` it is inactive: 5.86%; for `CC(C)(C)C(=O)NC(Sc1ccccc1)C(Cl)(Cl)Cl` (centres undefined) it is inactive: -26.4%.
As to `Cc1ccc2c(c1)C1C[N+](C)(CC(=O)c3ccccc3)CCC1N2C(=O)c1ccccc1Cl` (centres undefined), the inhibition was inactive: -2.76%.
With `CC(/C=C/c1ccccc1)=N/NC(=O)CCC(=O)Nc1ccccc1C` the figure was inactive: 5.13%.
For `COc1cccc(C(=O)CSc2nc3ccccc3n2CC(=O)N2CCOCC2)c1`, the inhibition was inactive: 16.7%.
The figure for `O=C(Cn1c(-c2cncs2)nc2ccccc21)NCCc1ccccc1` is inactive: 4.88%; for `CSc1nc2ccccc2n1CC(=O)Nc1c(C)n(C)n(-c2ccccc2)c1=O` it is inactive: -7.53%.
With `CCOC(=O)c1ccc(NC(=O)Cn2c(-c3nonc3N)nc3ccccc32)cc1` the figure was inactive: -60.9%.
On to `CCc1cc(O)c([N+](=O)[O-])c(C)c1[N+](=O)[O-]`, for which the inhibition was inactive: 15.7%.
The figure for `COCCNC(=O)Cn1cnc2c1c(=O)n(C)c(=O)n2C` is inactive: 13.5%.
The figure for `CCOc1ccc(C2=NCC(CBr)S2)cc1` (centres undefined) is inactive: 15.5%.
The figure for `COCCN1CCn2c(nc3cc(NC(C)=O)ccc32)C1` is inactive: 5.94%; for `Cc1nc2ccccc2n1CC(=O)N1CC(=O)Nc2ccccc21` it is inactive: -28.7%; for `COc1cccc(CNC(=O)[C@H](CCSC)NC(=O)N2CCn3c2nc2ccccc23)c1` it is inactive: 14.4%.
In the case of `COC(=O)c1ccc(CNC(=O)Cn2cnc3c(NCc4ccccc4)ncnc32)cc1`, the inhibition is inactive: 2.49%.
With `CC1CN(C(=O)Cn2cnc3c2c(=O)n(C)c(=O)n3C)CC(C)O1` (centres undefined) the figure was inactive: 11.7%.
The figure for `C[C@H](NC(=O)N1CCn2c1nc1ccccc12)C(=O)NCc1ccccc1` is inactive: 2.6%; for `O=P1(Nc2nc3ccc(Cl)cc3s2)COc2ccccc2O1` (centres undefined) it is inactive: 5.35%.
The figure for `CCn1c(=O)c2c(nc3n2CCN3c2ccccc2)n(C)c1=O` is inactive: 7.12%; for `O=C(Cn1cnc2c(OCc3ccccc3)ncnc21)NCc1ccccc1` it is inactive: 23%.
Consider `N#Cc1cccc(NC(=O)Cn2c3[n+](c4ccc(C(F)(F)F)cc42)CCCCC3)c1`, for which the inhibition is inactive: 12.8%.
Consider `Cc1ccc2c(c1)C1CN(C)CCC1N2C(=O)COc1ccc(N(C)C(=O)c2ccccc2)cc1` (centres undefined), for which the inhibition was inactive: 11.8%.
The figure for `N=c1n(CCCOc2ccccc2Cl)c2ccccc2n1CC(N)=O` is inactive: 19.6%; for `CC(C)(C)NC(=O)Cn1c(SCC(N)=O)nc2ccccc21` it is inactive: 11.4%.
With `O=C(Cn1c(NCCO)nc2ccccc21)Nc1ccc2c(c1)OCCCO2` the figure was inactive: 1.46%; with `CC(C)CCNC(=O)CC1C(=O)N(Cc2ccccc2)C(C)c2nc3ccccc3n21` (centres undefined), inactive: 12.6%; with `CN1C(=O)CC(n2c(CO)nc3ccccc32)C1=O` (centres undefined), inactive: 4.65%.
Regarding `Cn1c(=O)c2c(ncn2CC(=O)Nc2cc(S(=O)(=O)N3CCCCC3)ccc2Cl)n(C)c1=O`, the inhibition was inactive: 5.83%.
With `Cc1nc2cc(C(F)(F)F)ccc2n1C1CCN(Cc2nnnn2CCc2ccccc2)CC1` the figure was inactive: 13%; with `CC(=O)Nc1ccc(Oc2c([N+](=O)[O-])cc([N+](=O)[O-])cc2[N+](=O)[O-])cc1`, inactive: 14.6%.
The figure for `O=C(CCNC(=O)N1CCn2c1nc1ccccc12)NCc1ccc(Cl)cc1` is inactive: 8.48%.
With `Cc1cc(NC(=O)CSc2nc3ccccc3n2CC(=O)N2CCC(C)CC2)no1` the figure was inactive: 4.15%; with `CSCC[C@H](NC(=O)N1CCn2c1nc1ccccc12)C(=O)NC1CCCCC1`, inactive: 2.17%.
Turning to `O=S(=O)(c1ccc(F)cc1)N1CCn2c(nc3ccccc32)C1`, the inhibition was inactive: 7.99%.
The figure for `CC1=NNC(=O)C1CCC(=O)N/N=C/C=C/c1ccccc1` (centres undefined) is inactive: 16.5%; for `CC(=O)Nc1ccc([As](=O)(O)O)c(O)c1` it is inactive: 17.7%; for `COc1ccc2c(c1)C1(Nc3ccccc3-c3nc4ccccc4n31)C(=O)N2` (centres undefined) it is inactive: 7.78%.
The figure for `CCOC(=O)c1ccc(NC(=O)C2CC(=O)Nc3nc4ccccc4n32)cc1` (centres undefined) is inactive: 7.95%; for `CCC(C(=O)NC1CCCC1)n1c(SCc2cccc(C)c2)nc2ccncc21` (centres undefined) it is inactive: -2.4%.
The figure for `CC(C)[C@H](NC(=O)N1CCn2c1nc1ccccc12)C(=O)NCc1ccc(F)cc1` is inactive: 0.42%; for `COCC(=O)N(C)[C@H]1C[C@H]2c3cc(Oc4ccccc4C)ccc3CCN2C(=O)[C@H]1[C@H](C)O` it is inactive: 16.6%.
Take `COc1ccc(CCNC(=O)[C@H](C)NC(=O)N2CCn3c2nc2ccccc23)cc1OC`: the inhibition was inactive: 6.63%.
Turning to `COCCN1CCn2c(nc3cc(NC(=O)Cn4nc(C)c5ccccc5c4=O)ccc32)C1`, the inhibition was inactive: 6.7%.
With `O=C(Cn1cnc2ccccc21)Nc1ccc(C(=O)O)cc1` the figure was inactive: 4.46%; with `O=C(C1COc2ccccc2O1)N1CCn2c(nc3ccccc32)C1` (centres undefined), inactive: 6.55%; with `Fc1ccc2c(c1)nnn2C1CCN(Cc2nnnn2CCc2ccccc2)CC1`, inactive: 9.59%.
For `COc1ccccc1OCC(O)Cn1c(=N)n(CCN2CCCCC2)c2ccccc21` (centres undefined), the inhibition was inactive: 8.68%.
The figure for `CC(C)C[C@H](NC(=O)N1CCn2c1nc1ccccc12)C(=O)NCc1ccccc1` is inactive: 10.4%.
Take `C[C@H]1OP(=O)(Oc2ccccc2)C[C@@H]2O[C@@H]21` (some centres undefined): the inhibition was inactive: 2.28%.
Take `CCC(=O)Nc1nc2ccccc2n1CCN(C)C`: the inhibition is inactive: 6.95%.
The figure for `Cc1ccc2c(c1)C1CN(C)CCC1N2Sc1ccccc1[N+](=O)[O-]` (centres undefined) is inactive: -4.13%; for `CN(C)C(=O)CSc1nc2ccccc2n1CC(=O)N1CCN(c2ccccc2)CC1` it is inactive: 5.2%; for `CN(C)CCn1c(N)nc2ccccc21` it is inactive: -5.42%.
As to `C[C@H](O)[C@@H]1C(=O)N2CCc3ccc(-c4ccccc4)cc3[C@@H]2C[C@@H]1N(C)C(=O)c1ccc(C#N)cc1`, the inhibition was inactive: 6.06%.
The figure for `O=C(CCNC(=O)N1CCn2c1nc1ccccc12)NCc1ccccc1Cl` is inactive: 17%; for `C[C@@H]1C=CCP(=O)(Oc2ccccc2)O1` (some centres undefined) it is inactive: 5.66%.
Turning to `Cc1ccccc1CN(C)C(=O)COC(=O)C(O)(c1ccccc1)c1ccccc1`, the inhibition was inactive: 5.57%.
With `CC(C)(C)NC(=O)Cn1c(SCC(=O)Nc2nccs2)nc2ccccc21` the figure was inactive: 12.3%.
With `CCOc1ccc(S(=O)(=O)N(C)c2ccc(OCC(=O)N3c4ccc(C)cc4C4CN(C)CCC43)cc2)cc1` (centres undefined) the figure was inactive: 4.39%.
The figure for `Cc1ccc2c(c1)C1CN(C)CCC1N2C(=O)Nc1cccc(Cl)c1` (centres undefined) is inactive: -29%.
Consider `Cc1ccccc1Oc1ccc2c(c1)[C@@H]1C[C@H](N(C)C(=O)Nc3cc(Cl)cc(Cl)c3)[C@H]([C@H](C)O)C(=O)N1CC2`, for which the inhibition is inactive: 14.3%.
On to `COC(=O)C1(C)COP(=O)(NCc2ccccc2)OC1` (centres undefined), for which the inhibition was inactive: 16.6%.
With `CC(NC(=O)CCCCCNC(=O)N1CCn2c1nc1ccccc12)c1ccccc1` (centres undefined) the figure was inactive: 3.81%.
Turning to `O=C(Cn1cnc2ccccc21)N/N=C/C(Br)=C/c1ccccc1`, the inhibition is inactive: -14.1%.
With `Cn1c(=O)c2c(ncn2CC(=O)N/N=C/C(Cl)=C/c2ccccc2)n(C)c1=O` the figure was inactive: 5.12%; with `COC(=O)c1ccccc1NC(=O)Cn1c(-c2nonc2N)nc2ccccc21`, inactive: 15.2%.
The figure for `Cc1ccc2c(c1)C1CN(C)CCC1N2C(=O)COc1ccc(N(C)S(=O)(=O)c2cccs2)cc1` (centres undefined) is inactive: 2.25%; for `O=C(CCCCCNC(=O)N1CCn2c1nc1ccccc12)N[C@H](C(=O)O)c1ccccc1` it is inactive: 17.3%; for `CC(=O)c1ccc(N2CC2c2ccncc2)cc1` (centres undefined) it is inactive: 21%.
The figure for `Cc1ccc2c(c1)C1CN(C)CCC1N2S(=O)(=O)c1cccc(F)c1` (centres undefined) is inactive: 19.3%.
For `N#C/C(=C\c1ccc(N(CCBr)CCBr)cc1)C(N)=O`, the inhibition was inactive: 15.4%.
The figure for `O=C(Cn1c(SCC(=O)N2CCCc3ccccc32)nc2ccccc21)N1CCCC1` is inactive: 14.6%.
`Cc1ccc(-c2csc(NCCn3c(C(F)(F)F)nc4ccccc43)n2)cc1`: the inhibition was inactive: 0.14%.
For the molecule `Cn1c(=O)c2c(nc(CN3CCN(C(=O)c4ccco4)CC3)n2CC(N)=O)n(C)c1=O`, the inhibition is inactive: 3.77%.
With `O=C(Nc1nc2ccccc2n1CCN1CCCCC1)C1CCCCC1` the figure was inactive: 11.2%.
With `CC1Cc2ccccc2N1C(=O)Cn1cnc2c1c(=O)n(C)c(=O)n2C` (centres undefined) the figure was inactive: 12.5%; with `CC(NC(=O)CCNC(=O)N1CCn2c1nc1ccccc12)c1ccccc1` (centres undefined), inactive: 8.05%.
With `CC(O)CNc1nc2ccccc2n1CC(=O)NCCc1ccc(Cl)cc1` (centres undefined) the figure was inactive: 8.56%; with `O=S(=O)(c1ccccc1)c1nnn2c1nc(NC1CCN(Cc3ccccc3)CC1)c1ccccc12`, inactive: 5.39%; with `O=C(Nc1nc2ccccc2n1CCN1CCCCC1)c1ccco1`, inactive: -0.97%.
Consider `O=C(Cn1c(-c2cscn2)nc2ccccc21)Nc1ccccc1F`, for which the inhibition is inactive: 13.9%.
